Data from patent US20240002434A1, “METHODS OF INACTIVATING VIRAL CONTAMINANTS” (ICHNOS SCIENCES SA, priority 2017, published 2024).

Amino acid sequences for entries named in this document (tags omitted). Residues count along the entry.
UniProt P07766, 23-48 limits assumed: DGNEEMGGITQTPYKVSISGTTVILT

Key:
hsCD3e 1-26Fc = biological target: T1, hsCD3e 1-26Fc (Homo sapiens, UniProt P07766); test: Binding affinity assay of BEAT®2 to CD3; conditions: human CD3ε 1-26 Nterm
T1 construct: its targets CD3ε 1-26-Fc and CD38
Experimental: (§1) Two antigens targets were tested, the CD38 and CD3.
(§2) Some samples of the ones described above, were selected to be tested by surface plasmon resonance (Table 37). […] In addition, cell based functional assay were also performed to directly verify the impact of high pH on BEAT®2 molecule activity.

hsCD38 = hsCD38 (Homo sapiens, UniProt P28907); test: Binding affinity assay of BEAT®2 to CD38
Experimental: as §1, §2

B1: BEAT ®2 (protein)
chain 1: DIQMTQSPSSLSASVGDRVTITCQASQDVITSVAWYQQKPGKAPKLLIYSASYRYTGVPSRFSGSGSGTDFTFTISSLQPEDIATYYCQQHYTIPLTFGQGTKLEIKRTVAAPSVFIFPPSDEQLKSGTASVVCLLNNFYPREAKVQWKVDNALQSGNSQESVTEQDSKDSTYSLSSTLTLSKADYEKHKVYACEVTHQGLSSPVTKSFNRGEC
chain 2: QVTLKESGPTLVKPTQTLTLTCTFSGLSLSTSGKGVGWIRQPPGKALEWLAHIWWDDDKRYNPALKSRLTITKDTSKNQVVLTMTNMDPVDTATYYCARIELGRSYVMDYWGQGTLVTVSSASTKGPSVFPLAPSSKSTSGGTAALGCLVKDYFPEPVTVSWNSGALTSGVHTFPAVLQSSGLYSLSSVVTVPSSSLGTQTYICNVNHKPSNTKVDKKVEPKSCDKTHTCPPCPAPEAAGGPSVFLFPPKPKDTLMISRTPEVTCVVVDVSHEDPEVQFKWYVDGVEVHNAKTKPREEQYNSTFRVVSVLTVLHQDWLNGKEYKCKVSNKALPAPIEKTISKTKGQPREPAVYTLPPSREEMTKNQVKLVCLVTGFYPSDIAVEWESSGQPENNYYTTPPMLDSDGSFSLVSWLNVDKSRWQQGNIFSCSVMHEALHNRFTQKSLSLSPG
chain 3: EVQLVESGGGLVQPGGSLRLSCAASGFTFNTYAMNWVRQAPGKGLEWVARIRSKYNNYATYYADSVKGRFTISRDDSKNTLYLQMNSLRAEDTAVYYCVRHGNFGNSYVSYFAYWGQGTTVTVSSGGGGSGGGGSGGGGSEIVVTQSPATLSVSPGERATLSCRSSTGAVTESNYANWVQEKPGQAFRGLIGGANKRAPGVPARFSGSLSGDEATLTISSLQSEDFAVYYCALFYSNTWVFGQGTKLEIKGGGGTDKTHTCPPCPAPEAAGGPSVFLFPPKPKDTLMISRTPEVTCVVVDVSHEDPEVKFNWYVDGVEVHNAKTKPREEQYNSTYRVVSVLTVLHQDWLNGKEYKCKVSNKALPAPIEKTISKAKGQPREPEVATFPPSRDELTKNQVTLVCLVTGFYPSDIAVEWESNGQPENNYKTDPPLLESQGSFALSSRLRVDKSRWQQGNVFSCSVMHEALHNHYTQKSLSLSPG
Kd (hsCD3e 1-26Fc; PA eluate): 42.2 nM | Relative KD (% RS) (hsCD3e 1-26Fc; PA eluate): 100 % RS | Kd (hsCD3e 1-26Fc; high pH t0): 28.5 nM | Relative KD (% RS) (hsCD3e 1-26Fc; high pH t0): 68 % RS | Kd (hsCD3e 1-26Fc; high pH t1): 39.1 nM | Relative KD (% RS) (hsCD3e 1-26Fc; high pH t1): 93 % RS | Kd (hsCD3e 1-26Fc; high pH t2): 41.1 nM | Relative KD (% RS) (hsCD3e 1-26Fc; high pH t2): 97 % RS | Relative KD (% RS) (hsCD38; PA eluate): 100 % RS | Relative KD (% RS) (hsCD38; high pH t0): 104 % RS | Relative KD (% RS) (hsCD38; high pH t1): 113 % RS | Relative KD (% RS) (hsCD38; high pH t2): 100 % RS
